Literature values as cited in patent publication US20230265432A1, “METHODS AND COMPOSITIONS FOR TREATING ACUTE MYELOID LEUKEMIA” (Sanford Burnham Prebys Medical Discovery Institute, priority 2021, published 2023).

Chains of the proteins cited; added tags and fusions are not shown.
UniProt O95696, whole entry: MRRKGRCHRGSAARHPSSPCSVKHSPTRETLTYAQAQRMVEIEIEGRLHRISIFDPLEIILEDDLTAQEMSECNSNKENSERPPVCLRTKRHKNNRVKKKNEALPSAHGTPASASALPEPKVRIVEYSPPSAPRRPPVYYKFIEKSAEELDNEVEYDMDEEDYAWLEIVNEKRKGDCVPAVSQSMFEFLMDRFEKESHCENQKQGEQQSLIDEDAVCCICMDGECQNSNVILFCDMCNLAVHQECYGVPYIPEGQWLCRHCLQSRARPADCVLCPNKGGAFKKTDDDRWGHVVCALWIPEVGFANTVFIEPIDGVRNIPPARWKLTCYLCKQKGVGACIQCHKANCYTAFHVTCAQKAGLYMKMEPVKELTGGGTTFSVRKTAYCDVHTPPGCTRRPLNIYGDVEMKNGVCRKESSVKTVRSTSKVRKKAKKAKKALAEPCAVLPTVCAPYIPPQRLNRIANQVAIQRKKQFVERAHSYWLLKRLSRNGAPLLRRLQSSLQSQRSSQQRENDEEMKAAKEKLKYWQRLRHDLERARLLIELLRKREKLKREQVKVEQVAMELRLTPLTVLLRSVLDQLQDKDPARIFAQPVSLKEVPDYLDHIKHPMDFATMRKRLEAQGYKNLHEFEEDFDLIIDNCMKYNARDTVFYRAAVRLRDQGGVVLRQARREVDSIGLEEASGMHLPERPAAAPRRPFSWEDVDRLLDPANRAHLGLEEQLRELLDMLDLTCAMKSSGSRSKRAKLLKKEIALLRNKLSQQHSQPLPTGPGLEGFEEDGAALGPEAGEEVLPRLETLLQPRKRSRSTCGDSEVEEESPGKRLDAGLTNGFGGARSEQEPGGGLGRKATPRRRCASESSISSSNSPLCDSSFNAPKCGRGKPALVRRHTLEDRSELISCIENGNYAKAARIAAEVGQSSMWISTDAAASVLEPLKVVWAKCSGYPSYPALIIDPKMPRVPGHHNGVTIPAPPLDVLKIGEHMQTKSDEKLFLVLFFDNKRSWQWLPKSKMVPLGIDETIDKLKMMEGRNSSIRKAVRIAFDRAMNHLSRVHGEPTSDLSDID

Biological target: BRPF2 (Homo sapiens, UniProt O95696)
Conditions: cited from earlier work

For `COc1cc2c(cc1NS(=O)(=O)c1ccc(Br)cc1C)n(C)c(=O)n2C`, the Kd is listed as 500 nM.
